Some of the results follow. Some tests of the compounds listed are not included; inactive here does not mean inactive elsewhere. Active and inactive are the calls of the source.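 How the source made its calls: active means activation factor of at least 2 at 5 µM in the primary screen; inactive means the rest.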

The chains behind the UniProt entries cited, without tags or fusion partners.
UniProt P33261, whole entry: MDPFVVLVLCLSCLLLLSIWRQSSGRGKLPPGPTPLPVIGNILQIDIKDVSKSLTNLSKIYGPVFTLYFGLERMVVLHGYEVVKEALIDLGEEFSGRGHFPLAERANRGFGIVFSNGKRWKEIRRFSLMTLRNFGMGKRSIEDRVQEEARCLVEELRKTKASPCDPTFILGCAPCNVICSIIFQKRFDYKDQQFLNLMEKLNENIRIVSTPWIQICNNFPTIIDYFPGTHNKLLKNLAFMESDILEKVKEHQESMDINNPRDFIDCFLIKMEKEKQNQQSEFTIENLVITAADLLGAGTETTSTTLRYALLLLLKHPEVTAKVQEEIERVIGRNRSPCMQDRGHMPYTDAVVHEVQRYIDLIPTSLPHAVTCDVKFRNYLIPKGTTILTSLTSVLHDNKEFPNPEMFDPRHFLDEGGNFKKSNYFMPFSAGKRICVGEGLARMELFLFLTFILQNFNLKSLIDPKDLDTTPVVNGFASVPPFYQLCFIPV

In the assay the target is Cytochrome P450 2C19 (Homo sapiens) (UniProt P33261). Briefly: human CYP2C19 activators, primary screen, biochemical, luminescence (AID 1025).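 Further: 0 = wells with 2.5 mM tranylcypromine and 1 = vehicle-only wells.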 The conditions noted are these: recombinant CYP2C19, luciferin-H EGE luminescence; at 5 µM; hits give high values; 0 = fully inhibited enzyme, 1 = untreated enzyme.
Regarding `O=C(OC1CN2CCC1CC2)C(CO)(c1ccccc1)c1ccccc1` (stereo not drawn), the activation factor is inactive: 1.1.
For `CN(C)c1cccc(C(=O)NCC2(N(C)C)CCCCC2)c1`, the activation factor is inactive: 1.
For `CC(C)N1C(=O)CC2(CCN(CCOC(=O)C(O)(c3ccccc3)c3ccccc3)CC2)C1=O`, the activation factor was inactive: 1.1.

For the origin of these results see PubChem BioAssay AID1025 (Sanford-Burnham Center for Chemical Genomics, 2008).
